This note sets out measurements from PubChem BioAssay AID1487 (National Center for Advancing Translational Sciences (NCATS), 2009).

Only a part is listed here, and it is no random draw. Inconclusive results are not listed. Active and inactive are the calls of the source. The call rests on the fitted dose curve; in most records, active means well fitted inhibition curve with a large enough effect in the signal ratio, with a control signal flat (not every such curve was filed as active); inconclusive means small, poorly fitted or top-dose-only effect, or effect the other way, or a change in a side signal; inactive means flat fitted curve, though single readings scatter; the % refers to the signal ratio.
On the % scale 0 is the no-effect control and ±100 the full control effect.

This assay in a line: qHTS Assay for Modulators of Lamin A Splicing. The following applies: HeLa LMNA splicing GFP/RFP minigene ratio, 48 h; at 46.1 µM (top of the series) unless noted. For orientation: In qHTS, concentration-response curves come from the screen itself.
For the compound `O=[As](O)(c1ccccc1Br)c1ccccc1Br`, the ratio change, negative = inhibition is inactive: 16.4% [at 46 µM].
Regarding `O=P(Nc1nccs1)(c1ccccc1)c1ccccc1`, the ratio change, negative = inhibition was inactive: -10%.
For the compound `CC(C)C(=O)NC(Sc1ccccc1)C(Cl)(Cl)Cl` (centres undefined), the ratio change, negative = inhibition was inactive: 0.428%.
With `c1nnnn1CCn1cnnn1` the figure was inactive: 9.06%.
`CC(=O)NC(SC(=S)N(C)C)C(Cl)(Cl)Cl` (centres undefined): the ratio change, negative = inhibition was inactive: -7.64%.
With `O=C(OC1CN2CCC1CC2)c1cccc(Cl)c1` (centres undefined) the figure was inactive: 3.9%.
On to `CCOC(=O)NC(Sc1ccccc1)C(Cl)(Cl)Cl` (centres undefined), for which the ratio change, negative = inhibition is inactive: 9.3%.
Next, `O=C(NC1CCS(=O)(=O)C1)NP(=S)(Oc1ccccc1)Oc1ccccc1` (centres undefined): inactive: -16.7% [at 46 µM].
For `CCC(=O)N1C2C3N(C(=O)CC)C1C1N(C(=O)CC)C(C(N1C(=O)CC)N3C(=O)CC)N2C(=O)CC`, the ratio change, negative = inhibition was inactive: -0.22%.
On to `CC(=O)NC(SC(=S)N(CC(C)C)CC(C)C)C(Cl)(Cl)Cl` (centres undefined), for which the ratio change, negative = inhibition was inactive: 12%.
In the case of `Cc1ccc(OP(=O)(Nc2ccccn2)Oc2ccc(C)cc2)cc1`, the ratio change, negative = inhibition was inactive: -22.2% [at 46 µM].
On to `COC(=O)c1cc2c(s1)N=C(c1ccccc1)N(C)P2(=O)N1CCOCC1` (centres undefined), for which the ratio change, negative = inhibition was inactive: 6.67%.
`O=P1(Nc2nc3ccc(Cl)cc3s2)COc2ccccc2O1` (centres undefined): the ratio change, negative = inhibition was inactive: 4.08%.
Take `CC(C)(C)C(=O)NC(Sc1ccccc1)C(Cl)(Cl)Cl` (centres undefined): the ratio change, negative = inhibition was inactive: 20.7% [at 46 µM].
Next, `CC(=O)Nc1ccc([As](=O)(O)O)c(O)c1`: inactive: 21.7% [at 46 µM]; `Cc1ccc(N/C(=N/P(=O)(N2CCOCC2)N2CCOCC2)N2CCOCC2)cc1`: inactive: 1.24% [at 46 µM]; `CN1CCCC(OC(=O)C(c2ccccc2)c2ccccc2)C1` (centres undefined): inactive: -5.39%.
Next, `O=C(NC(Sc1ccncn1)C(Cl)(Cl)Cl)c1ccccc1` (centres undefined): inactive: -8.01%.
Take `Oc1ccccc1CNc1ccccn1`: the ratio change, negative = inhibition was inactive: 12.7%.
With `CC(C)CC(=O)NC(Sc1ccc(Cl)cc1)C(Cl)(Cl)Cl` (centres undefined), the ratio change, negative = inhibition is inactive: -4.03%.
With `CC(=O)Nc1ccc([As](=O)(O)O)cc1` the figure was inactive: -0.73% [at 46 µM].
On to `CN(C(=O)Cc1ccc(Cl)c(Cl)c1)[C@H]1CCCC[C@@H]1N1CCCC1`, for which the ratio change, negative = inhibition was inactive: -10.9%.
Turning to `Cc1cc(SC(NC(=O)c2ccc(F)cc2)C(Cl)(Cl)Cl)ncn1` (centres undefined), the ratio change, negative = inhibition was inactive: -9.01%.
Next, `CCOP(=O)(Nc1ccccc1)OCC`: inactive: 12.1%; `CCN(N=Nc1nonc1N)c1nonc1N`: inactive: -13.9%; `O=[N+]([O-])c1ncn(CCn2ncnc2[N+](=O)[O-])n1`: inactive: 4.8% [at 9.22 µM].
With `COc1ccc(C2=NCC(CBr)S2)cc1` (centres undefined), the ratio change, negative = inhibition was inactive: -12.3% [at 46 µM].
On to `Cc1ccc(NP(=O)(Oc2ccccc2)Oc2ccccc2)nc1`, for which the ratio change, negative = inhibition is inactive: 9.35% [at 46 µM].
Take `CC(=O)N1C2C3N(C(C)=O)C1C1N(C(C)=O)C(C(N1C(C)=O)N3C(C)=O)N2C(C)=O`: the ratio change, negative = inhibition is inactive: 11.7%.
For the compound `O=[N+]([O-])c1cccc2n[nH]nc12`, the ratio change, negative = inhibition is inactive: -0.835%.
Regarding `CCN(/C(=N/P(=O)(N1CCOCC1)N1CCOCC1)N1CCOCC1)c1ccc(OC)cc1`, the ratio change, negative = inhibition is inactive: 3.82% [at 46 µM].
In the case of `Nc1ccc([As](=O)(O)c2ccc(N)cc2)cc1`, the ratio change, negative = inhibition is inactive: 0.194% [at 46 µM].
With `CC1CCN(C(=O)Oc2c(Cl)cc(Cl)c3cccnc23)CC1`, the ratio change, negative = inhibition is inactive: -4.95%.
For `CN(C)C(=O)OCCc1n(C)cc[n+]1C`, the ratio change, negative = inhibition is inactive: -6.49%.
